Assay outcomes: PubChem BioAssay, Broad Institute
Hits are enriched below; roughly 2.1% of the tested compounds scored in any of these assays.
miR-122 sensor: miR-122 Renilla sensor signal increase in Huh7, primary screen, miR-122 inhibitor project, cell-based, single point, plate reader | Huh7 miR-122 Renilla luciferase sensor, 48 h; neutral wells = 0, positive control = 100 | activation (reporter increase), % at 12.5 µM | 0.3% of 340,000 active | AID 602342, 2012;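 active means mean replicate activation score at least 90 and every replicate individually at or above 90; inconclusive means only one of the two criteria met; inactive means neither criterion met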;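 further: higher luciferase means less miR-122 activity so hits act as miR-122 inhibitors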
PGC1a acetyl inh: inhibitors of PGC1a acetylation signal, primary screen, cell-based, U2OS, AlphaScreen, inhibitor mode. 0.17% of 350,000 active. AID 651687, 2012. inhibition, % at 15.6 µM. AlphaScreen anti-acetyl-lysine; with virally co-expressed GCN5 acetyltransferase;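 active means every replicate shows inhibition of at least 40%; inconclusive means mean inhibition at least 40% but some replicate below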;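 further: 0% = neutral control wells and 100% = positive control wells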
MITF TRPM1 inh: inhibitors of MITF-dependent TRPM1 promoter reporter, primary screen, cell-based, SK-MEL-5, single point, luciferase | SK-MEL-5 TRPM1 promoter luciferase, 24 h | inhibition, % at 12.5 µM | 0.83% of 330,000 active | AID 488899, 2010;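 active means mean inhibition across replicates of 60% or more, whatever share of single replicates reaches that level; inconclusive means some that reach 60%, reason not given; inactive means mean inhibition across replicates below 60%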
Wnt bcat act: Wnt/beta-catenin pathway activators, primary screen, cell-based, plate reader, single point | AID 743398, 2014 | Wnt/beta-catenin reporter cell assay, activator | 1.2% of 300,000 active | activation, % at 9.35 µM; in the data active means activation above about 30%, passing the limit was not always enough; inconclusive means no clear call, values can overlap the other calls;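 further: 0% = neutral control wells and 100% = positive control wells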
UUG fidelity: modulators of yeast start codon fidelity, primary screen, whole organism, S. cerevisiae, single point, plate reader | AID 602363, 2012 | S. cerevisiae UUG-firefly luciferase reporter, luminescence/redox ratio | activity score, % at 18.7 µM | hit rate 0.13% among 350,000;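 active = replicate mean at a twofold rise or more, about +100% in these data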;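 also: firefly luciferase made from a UUG start codon reports start codon fidelity; reporter light over untreated wells divided by growth signal over untreated wells; some hits fall short of that in this replicate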
MITF act: activators of MITF-driven TRPM1 promoter reporter, primary screen, cell-based, SK-MEL-5, luciferase, single point | activation, % at 12.5 µM | SK-MEL-5 TRPM1-promoter luciferase, 24 h; % of positive control, neutral wells = 0 | 0.75% of 300,000 active;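 active means mean activation of at least 80% with every replicate also reaching 80%; inconclusive means mean reaches 80% but some replicate falls short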;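 further: 0% = neutral control wells and 100% = parthenolide positive control wells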
The depositor's hits bear a star; ? = inconclusive; / = not tested or not shown; [ ] = another dose, or the depositor's remark.

| molecule | UUG fidelity | PGC1a acetyl inh | MITF act | MITF TRPM1 inh | Wnt bcat act | miR-122 sensor |
| --- | --- | --- | --- | --- | --- | --- |
| CO[C@H]1CN(C)C(=O)c2ccc(NC(=O)C3CC3)cc2OC[C@@H](C)NC[C@@H]1C | -5.1 | 24.6 | / | / | / | / |
| CC(C)NC(=O)Nc1ccc2c(c1)CC(=O)N([C@@H](C)CO)C[C@H](C)[C@@H](CN(C)C(=O)Nc1cccc3ccccc13)O2 | -0.3 | -4.1 | / | / | / | -0.5[16.7 µM] |
| COc1ccc(NC(=O)Nc2cccc3c2O[C@@H](CN(C)C(=O)Nc2c(C)noc2C)[C@H](C)CN([C@@H](C)CO)C3=O)cc1 | -11.3 | 10.8 | / | / | / | 1.1[16.7 µM] |
| CCN(CC(=O)NCc1cccs1)C(=O)c1cccc(S(=O)(=O)Nc2ccc(C)cc2)c1 | -12.2 | / | -4.4 | 2.3 | -0.4 | 80.3 |
| Cc1ccc(NS(=O)(=O)c2cccc(C(=O)N(C)Cc3cccs3)c2)cc1 | 3.4 | / | -1.3 | 2.9 | 0.9 | 100.1* |
| CN1C(=O)c2cc(NC(=O)C3CC3)ccc2OC[C@@H]2O[C@H](CC(=O)NC3CCC3)CC[C@H]21 | 19.6 | -9.5 | / | / | / | -32.5[16.7 µM] |
| Cc1ccc2[nH]c(=O)c(-c3nc4ccccn4c3NCc3ccco3)cc2c1 | -5.5 | / | 13.8 | -11.0 | 54.6* | -9.7 |
| Cc1cc(C)c(S(=O)(=O)NCc2ccncc2)c(C)c1 | -11.6 | 12.7 | -29.3 | 13.2 | -10.5 | 117.6* |
| CC=Cc1ccc2n(c1=O)C[C@H]1[C@H](CO)[C@@H](C(=O)NC3CCCC3)N[C@@H]21 (mixture of isomers) | / | 8.9 | / | / | / | / |
| COc1ccc(C(=S)Nc2ccc(C)cc2)cc1 | / | 14.9 | 109.2* | -104.1 | / | 4.6 |
| Cc1ccc(NC(=S)c2ccccc2)cc1 | -19.9 | 10.7 | 81.5* | -79.5 | ? | -12.3 |
| Cc1ccc(NC(=S)c2ccncc2)cc1 | -17.0 | -66.3 | 2.2 | -1.6 | 0.6 | / |
| COc1ccc(NC(=S)c2ccncc2)cc1 | / | / | -6.7 | 6.2 | 8.6 | / |
| CCOc1cc(/C=N/N=C/c2ccc(O)c(OCC)c2)ccc1O | -7.4 | -1.5 | -12.4 | 14.0 | -1.6 | -7.9 |
| CCN1C/C(=C/c2cccc([N+](=O)[O-])c2)C(=O)/C(=C/c2cccc([N+](=O)[O-])c2)C1 | 12.7 | / | -91.9 | 92.5* | / | 22.0 |
| CCOc1cc(/C=C2\CN(CC)C/C(=C\c3ccc(O)c(OCC)c3)C2=O)ccc1O | -3.9 | 24.5 | -91.9 | 92.9* | 9.4 | -35.8 |
| O=C(NCC[C@@H]1CC[C@@H](NC(=O)c2ccccc2F)[C@H](CO)O1)c1cnccn1 | -8.2 | 0.7 | / | / | / | / |
| CCOc1ccc(Cl)cc1S(=O)(=O)N1CCN(c2ccc(C)c(C)c2)CC1 | -13.8 | / | / | 3.0 | / | 35.9 |
| CCOc1ccc(Cl)cc1S(=O)(=O)n1cnc2cc(C)c(C)cc21 | -3.0 | 5.6 | / | -7.8 | -7.2 | 183.2* |
| COc1ccc(C(NC(=O)c2c(F)c(F)c(F)c(F)c2F)c2ccccc2)cc1 (stereo not given) | 10.5 | 84.6* | -37.4 | 39.8 | 8.5 | -14.6 |
| CCOC(=O)c1sc(=NC(=O)c2ccc(F)cc2)n(C)c1C | -18.4 | 2.5 | 57.8 | -56.0 | ? | 7.5 |
| CCOC(=O)c1sc(=NC(=O)CCSc2ccccc2)n(C)c1C | / | 14.3 | 113.5* | -109.8 | 26.5 | / |
| CCOC(=O)c1sc(=NC(=O)c2ccc(C)cc2)n(C)c1C | / | 1.9 | 32.4 | -28.5 | 31.5* | / |
| C[C@@H]1CN([C@@H](C)CO)C(=O)c2cc(N(C)C)ccc2O[C@H]1CN(C)S(=O)(=O)c1ccc(F)cc1 | -4.8 | 9.5 | / | / | / | 3.1[16.7 µM] |
| O=C(CSc1nnc(C2CC2)n1C1CC1)c1ccc(Br)s1 | -10.2 | -2.8 | 71.2 | -72.8 | 32.6* | 9.1 |
| Cc1c(C(=O)Nc2ccc(S(=O)(=O)N(C)C3CCN(C)CC3)cc2)oc2ccccc12 | -12.8 | -20.7 | 3.9 | -7.8 | -3.3 | -13.4 |
| Cc1c(C(=O)Nc2ccc(S(=O)(=O)N(C)C3CCN(C)CC3)cc2)oc2c(Cl)cccc12 | -5.4 | / | -78.5 | 79.3* | -1.8 | / |
| Cc1ccc2c(C)c(C(=O)Nc3ccc(S(N)(=O)=O)cc3)oc2c1C | -1.4 | -6.7 | 20.8 | -21.6 | 30.0* | -9.5 |
| Cc1ccc(N2C(=O)c3ccc(N)cc3C2=O)cc1 | -25.3 | -27.3 | / | -46.2 | 68.8* | 1.5 |
| O=C(Cc1ccccn1)NCC[C@@H]1CC[C@H](NC(=O)CN2CCOCC2)[C@@H](CO)O1 | -3.8 | -1.3 | / | / | / | / |
| c1ccc(-n2nnc(-c3cccnc3)n2)cc1 | -12.6 | / | 91.1* | -92.7 | 27.6 | -0.9 |
| Cc1ccc(-n2nnc(-c3cccnc3)n2)cc1 | -3.7 | / | 101.6* | -95.7 | 22.3 | / |
| COC(=O)c1ccc(CN2CC(=O)N3[C@H](CO)[C@H](c4ccc(-c5cccnc5)cc4)[C@@H]3C2)cc1 | / | 8.4 | / | / | / | / |
| O=C(C[C@@H]1CC[C@H]2[C@@H](COC[C@@H](O)CN2Cc2ccccc2)O1)N[C@@H]1CCN(Cc2ccccc2)C1 | 17.4 | -3.7 | / | / | / | -6.1[16.7 µM] |
| c1ccc(Sc2ccccn2)cc1 | -9.1 | 75.8* | / | / | 3.5 | -1.6 |
| c1ccc(SSc2ccccn2)nc1 | 0.2 | 18.0 | / | 0.0 | / | -3.2 |
| O=c1cc(-c2ccccc2)oc2cc(O)ccc12 | -19.6 | 3.4 | 87.6* | -79.1 | 3.5 | -17.4 |
| O=c1cc(-c2ccc(O)cc2)oc2ccc(O)cc12 | / | -10.2 | 77.8 | -81.6 | 56.5* | -1.0 |
| C/C=C/c1ccc2c(c1)O[C@@H](CN(C)CC1CC1)[C@@H](C)CN([C@H](C)CO)S2(=O)=O | -6.5 | 9.7 | / | / | / | -1.7[16.7 µM] |
| O=C(N/N=C/c1ccc2c(c1)OCO2)c1ccc2c(c1)OCO2 | -14.1 | -0.6 | 57.9 | -53.8 | 25.3 | 4.4 |
| O=C(NN=Cc1ccc2c(c1)OCO2)c1ccccc1 | -25.8 | / | 66.9 | -70.8 | 62.9* | 1.4 |
| Cc1ccsc1/C=N\NC(=O)c1ccc2c(c1)OCO2 | -13.2 | / | / | -37.4 | 39.4* | 2.5 |
| O=C(C[C@H]1CC[C@H](NC(=O)NC2CCCCC2)[C@H](CO)O1)NCc1ccc(Cl)cc1 | -2.5 | 53.6* | / | / | / | / |
| O=C(C[C@@H]1CC[C@H](NC(=O)NC2CCCCC2)[C@@H](CO)O1)NCc1ccc(Cl)cc1 | 10.6 | -1.0 | / | / | / | / |
| COc1ccc(-c2cc3ccccc3cn2)cc1 | -40.4 | 6.0 | 18.0 | -20.7 | 27.4 | -0.6 |
| Fc1ccc2cnc(C3=CCCCC3)cc2c1 | -14.0 | / | 103.4* | -101.8 | 33.3* | / |
| C1=C(c2cc3ccccc3cn2)CCCC1 | -12.7 | 8.5 | 96.6* | -96.0 | 49.6* | -0.9 |
| COc1ccc(CN(C)C[C@H]2Oc3c(NC(=O)c4nc5ccccc5s4)cccc3C(=O)N([C@H](C)CO)C[C@@H]2C)cc1 | -1.5 | 6.4 | / | / | / | 3.3[16.7 µM] |
| CCN1CCN(Cc2ccc(NC(=O)c3cc(NC(=O)c4nccnc4N)cc(OC)c3)cc2C(F)(F)F)CC1 | -11.0 | / | -71.7 | 73.1* | -2.8 | / |
| Cc1ccc2c(C)c(C(=O)Nc3cccnc3)oc2c1 | -25.8 | -2.3 | 45.9 | -43.5 | / | 0.7 |
| Cc1ccc2c(Cl)c(C(=O)Nc3cccnc3)sc2c1 | / | / | 94.6* | -98.4 | / | 20.6 |

6 compounds picked at random from those above, as already listed:
| molecule | UUG fidelity | PGC1a acetyl inh | MITF act | MITF TRPM1 inh | Wnt bcat act | miR-122 sensor |
| --- | --- | --- | --- | --- | --- | --- |
| COc1ccc(C(=S)Nc2ccc(C)cc2)cc1 | / | 14.9 | 109.2* | -104.1 | / | 4.6 |
| CCN1C/C(=C/c2cccc([N+](=O)[O-])c2)C(=O)/C(=C/c2cccc([N+](=O)[O-])c2)C1 | 12.7 | / | -91.9 | 92.5* | / | 22.0 |
| CCOc1cc(/C=C2\CN(CC)C/C(=C\c3ccc(O)c(OCC)c3)C2=O)ccc1O | -3.9 | 24.5 | -91.9 | 92.9* | 9.4 | -35.8 |
| CO[C@H]1CN(C)C(=O)c2ccc(NC(=O)C3CC3)cc2OC[C@@H](C)NC[C@@H]1C | -5.1 | 24.6 | / | / | / | / |
| Cc1ccc2[nH]c(=O)c(-c3nc4ccccn4c3NCc3ccco3)cc2c1 | -5.5 | / | 13.8 | -11.0 | 54.6* | -9.7 |
| O=C(CSc1nnc(C2CC2)n1C1CC1)c1ccc(Br)s1 | -10.2 | -2.8 | 71.2 | -72.8 | 32.6* | 9.1 |
